Results as given in US11512090B2, “Muscarinic acetylcholine M1 receptor antagonists” (PIPELINE THERAPEUTICS, INC., priority 2018, dated 2022).

Protein sequences, listed by entry. Tags and fused reporters are not part of them.
UniProt P08172, whole entry: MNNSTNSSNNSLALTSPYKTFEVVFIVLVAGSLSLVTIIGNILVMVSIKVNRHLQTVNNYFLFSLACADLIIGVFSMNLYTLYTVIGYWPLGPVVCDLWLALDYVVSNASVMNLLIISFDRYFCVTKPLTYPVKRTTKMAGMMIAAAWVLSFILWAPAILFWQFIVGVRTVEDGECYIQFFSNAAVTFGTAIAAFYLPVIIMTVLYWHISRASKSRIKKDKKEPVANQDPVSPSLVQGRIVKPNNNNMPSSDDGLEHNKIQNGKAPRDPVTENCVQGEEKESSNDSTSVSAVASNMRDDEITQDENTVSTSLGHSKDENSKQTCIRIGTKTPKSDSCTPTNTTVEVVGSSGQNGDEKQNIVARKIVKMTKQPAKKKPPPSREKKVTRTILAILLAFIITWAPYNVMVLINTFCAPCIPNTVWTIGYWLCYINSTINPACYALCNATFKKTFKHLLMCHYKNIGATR
UniProt P20309, whole entry: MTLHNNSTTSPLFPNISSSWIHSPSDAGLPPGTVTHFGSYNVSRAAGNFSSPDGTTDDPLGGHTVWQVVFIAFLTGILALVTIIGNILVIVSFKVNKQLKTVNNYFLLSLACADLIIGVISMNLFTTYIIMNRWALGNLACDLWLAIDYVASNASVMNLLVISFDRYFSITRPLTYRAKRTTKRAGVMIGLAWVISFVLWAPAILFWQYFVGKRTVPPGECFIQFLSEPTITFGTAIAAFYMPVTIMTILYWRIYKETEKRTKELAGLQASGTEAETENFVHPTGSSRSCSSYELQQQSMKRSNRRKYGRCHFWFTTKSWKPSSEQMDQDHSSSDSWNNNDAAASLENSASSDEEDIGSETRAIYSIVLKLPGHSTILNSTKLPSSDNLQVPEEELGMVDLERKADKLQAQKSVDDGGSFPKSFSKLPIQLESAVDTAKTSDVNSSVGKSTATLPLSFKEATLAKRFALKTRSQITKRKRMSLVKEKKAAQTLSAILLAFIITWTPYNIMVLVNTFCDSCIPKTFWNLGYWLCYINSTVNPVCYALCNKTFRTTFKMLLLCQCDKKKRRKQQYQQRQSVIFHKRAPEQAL

How the values were obtained:
[1] = target: M2 (Homo sapiens, UniProt P08172); experiment: In vitro functional assay of muscarinic acetylcholine receptor activity, M2; assay type: cell-based
Experimental: [The procedure below names another target; the source lists this target under the same test.] (§1) CHO-K1 cells stably expressing human M1 receptor with Aequorin (Perkin Elmer) were grown in F12 media, 10% FBS with 0.4 mg/mL geneticin and […]. Cells were grown to confluence and frozen down to be assayed at a later date. On the day of the experiment cells were thawed in a 37° C. water bath, resuspended in DMEM/HAM's F12 with HEPES (Invitrogen)+0.1% protease-free BSA (assay buffer), and spun down to remove freezing media. After centrifugation, supernatant was removed and 12 mL of assay buffer was added. Coelenterazine h (Promega) was added to the cells at a final concentration of 5 uM and incubated for 4 hours at room temperature in the dark. Compound master plate-96 deep well (Corning) were formatted in a 8-point DRC in assay buffer with 0.2% DMSO at a starting concentration of 60 uM (2×). […]
(§2) Calcium flux was measured using the FlexStation 3 (Molecular Devices). To measure the antagonist dose-response, the EC80 of Acetylcholine was injected to the daughter plate using the automated compound transfer function of the Flex Station, and the increase in luminescence was measured over time. Antagonist activity was analyzed as a concentration dependent decrease in the EC80 acetylcholine response. […] The IC50 of the compounds was calculated from the dose response curve.

[2] = target: M3 (Homo sapiens, UniProt P20309); experiment: In vitro functional assay of muscarinic acetylcholine receptor activity, M3; assay type: cell-based
Experimental: [The procedure below names another target; the source lists this target under the same test.] as §1, §2

Question: What does the source list for `N#Cc1ccc(N2C3CCC2CN(C(=O)CCNCc2c(F)ccc4ncnn24)C3)nc1` [Example 41, 6-(3-{3-[({6-fluoro-[1,2,4]triazolo[1,5-a]pyridin-5-yl}methyl)amino]propanoyl}-3,8-diazabicyclo[3.2.1]octan-8-yl)pyridine-3-carbonitrile]?
Answer: IC50 [1]: 1 to 10 µM; IC50 [2]: > 10 µM
